Test results as given in patent publication US8987293B2, “Morphinans useful as analgesics” (Phoenix Pharmalabs, Inc., priority 2010, dated 2015).

The chains behind the UniProt entries cited, without tags or fusion partners.
UniProt P35372, whole entry: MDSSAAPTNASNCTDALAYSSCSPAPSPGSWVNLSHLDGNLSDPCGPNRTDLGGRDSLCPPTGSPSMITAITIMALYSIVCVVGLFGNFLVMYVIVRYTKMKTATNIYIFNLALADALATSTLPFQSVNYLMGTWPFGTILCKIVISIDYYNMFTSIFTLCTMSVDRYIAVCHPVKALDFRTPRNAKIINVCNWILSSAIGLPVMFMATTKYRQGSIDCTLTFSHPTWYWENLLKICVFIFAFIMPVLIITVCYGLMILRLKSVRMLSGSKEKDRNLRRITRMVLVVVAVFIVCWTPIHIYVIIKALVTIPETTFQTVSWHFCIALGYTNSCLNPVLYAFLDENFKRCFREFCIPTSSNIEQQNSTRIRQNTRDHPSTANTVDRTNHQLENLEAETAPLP

Molecular target: T1, human mu receptor (Homo sapiens, UniProt P35372)
T1 construct: expressed in transfected cells; host or cells: CHO cells
Assay: [35S]GTP γS binding functional assay, CHO cell membranes
Type: biochemical
Details: 1 hr at 25 C

## C[C@H](C1CC1)N1CC[C@]23CCCC[C@H]2[C@H]1Cc1ccc(O)cc13 [Compound 5]
  percent stimulation at the mu receptor: 22.6±0.1%
